# Ab-91 heavy chain CDR variants: yeast mating affinities

Values reported by Engelhart et al. 2022, doi:10.1038/s41597-022-01779-4 (FLAb copy).

The target is the same throughout: PDVDLGDISGINAS, from the HR2 region of SARS-CoV-2 spike.

Parent: Ab-91, a human scFv built as VL, the linker GGGGSGGGGSGGGGS, VH. Only the CDRs of the heavy chain vary.
VL: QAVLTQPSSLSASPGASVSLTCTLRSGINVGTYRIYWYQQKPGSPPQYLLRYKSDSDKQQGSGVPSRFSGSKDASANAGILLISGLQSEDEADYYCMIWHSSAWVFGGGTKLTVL
VH: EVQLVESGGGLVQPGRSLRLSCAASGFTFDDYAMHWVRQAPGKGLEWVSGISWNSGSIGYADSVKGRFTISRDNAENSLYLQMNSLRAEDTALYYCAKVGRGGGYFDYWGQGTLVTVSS

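Phage display of a naive human antibody library on the peptide gave the parent. In library AAYL51, one, two or three CDR residues were substituted; doubles and triples were drawn at random. AlphaSeq pools MATa yeast showing the antibodies with MATalpha yeast showing the peptide. Binding brings cells together so that they mate, and sequencing counts the barcode pairs among the diploids. Scores were corrected for input abundance and mapped to Kd with protein pairs of known affinity run in the same pool. The assay was run in three technical replicates.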

Substitutions are numbered in sequence along the VH above, starting at 1 (not Kabat).
Each Kd is an estimate from the mating assay, the geometric mean of the replicates in which the pair was seen; lower is stronger.
An entry "not detected" has no value in the source: the pair was not observed among the diploids in any replicate. This suggests poor binding but is not conclusive.

changes | Kd (apparent) | detected
G50F Y60L G104H | 110 µM | 3/3
T28A S63T V99F | 1.3 mM | 1/3
F29L Y60A | not detected | 0/3
M34Q G100L Y105K | 210 µM | 1/3
F29S S52C V64G | 20 µM | 1/3
G59T D62H Y108P | 86 µM | 1/3
Y32D G100T F106E | 13 µM | 2/3
G59F G100S F106K | not detected | 0/3
M34Q I51S V99L | 49 µM | 1/3
M34D W53Y A61W | not detected | 0/3
G26S S52R S63R | not detected | 0/3
F29V S52T G102S | 6.3 µM | 2/3
T28R R101W G104F | not detected | 0/3
I51E K65F R101G | not detected | 0/3
R101H D107I | 60 µM | 2/3
D31L W53R D62F | 94 µM | 3/3
A33F S52E S57T | not detected | 0/3
T28G I51A I58H | not detected | 0/3
Y32N A33M R101G | not detected | 0/3
F27H S55M S63M | 330 µM | 1/3
W53M Y60Q G102Y | 30 µM | 1/3
A33Q G50T G103W | not detected | 0/3
F29R I58C V99D | 230 µM | 2/3
F29H D30Q F106T | 500 µM | 3/3
D30L W53D S57Y | not detected | 0/3
H35W V64K Y105A | not detected | 0/3
W53N S55M Y60I | 40 µM | 1/3
T28D A61T | not detected | 0/3
G26K S52R G59Q | 9.3 µM | 1/3
V64N G100V G102H | 1.8 µM | 3/3
H35D D62L F106E | not detected | 0/3
Y32T M34D G100R | not detected | 0/3
S55E S63F R101V | not detected | 0/3
Y32W M34E I51Q | 74 µM | 1/3
S57Y G100T G102Q | not detected | 0/3
W53P R101Q F106H | not detected | 0/3
T28W G59Q | 43 µM | 2/3
W53S N54M V99G | 72 nM | 3/3
G56A S63R G104R | 2.4 µM | 1/3
F27T G59H G104T | 3.9 µM | 2/3
G59T D107F | 17 µM | 1/3
H35D G56V D107R | not detected | 0/3
G56H A61F R101A | 1.6 µM | 3/3
S57T D62I G104F | 70 µM | 1/3
M34S H35I G100F | 230 µM | 1/3
Y32L I58D F106P | not detected | 0/3
S52R D62R S63P | not detected | 0/3
H35W S57P G100N | 1.5 µM | 1/3
M34N Y60K D62W | 5.5 µM | 2/3
N54L A61C Y108E | not detected | 0/3
N54K K65V | 26 µM | 2/3
G56H K65Q G104E | 29 nM | 3/3
T28G A33V G50Q | 3.3 µM | 1/3
H35G I51S S55T | not detected | 0/3
G56R V99S D107H | not detected | 0/3
Y32V K65T D107P | 140 nM | 3/3
S52D G59I G102I | 450 µM | 2/3
D30L M34D | 230 µM | 1/3
H35E I51Q F106L | not detected | 0/3
M34F G59Y K65G | 5.6 µM | 1/3
G50K W53F Y60P | 140 µM | 3/3
G50D V64I V99D | not detected | 0/3
D62G Y105K | 36 µM | 2/3
G26Y D62G D107P | not detected | 0/3
V99E G100D D107I | 1.2 µM | 3/3
N54R G104D | not detected | 0/3
G26P D30K S57N | 4.8 µM | 1/3
V64D G100M D107E | not detected | 0/3

6 of these entries, quoted again:

changes,Kd (apparent),detected
F27T G59H G104T,3.9 µM,2/3
T28G I51A I58H,not detected,0/3
D30L M34D,230 µM,1/3
F27H S55M S63M,330 µM,1/3
H35G I51S S55T,not detected,0/3
I51E K65F R101G,not detected,0/3

For reference, the parent read 72 nM as the reference entry and 7.5 nM as a member of this library.
Three control strains display no target. For library AAYL51, 21% of the pairings with them gave a signal, with a median of 34 µM and one signal in twenty below 1.8 µM, so weak values seen in few replicates may be background.